In the assay the target is M2_G15 fusion protein (M2 muscarinic receptor fused with the G15 G-protein alpha-subunit) (Homo sapiens, UniProt P08172). Description: agonist-stimulated […]GTPγS binding, membranes. Type of assay: biochemical. Also noted: gene CHRM2; clone #3, except KA from all five clones. For orientation: Binding of GTPγS marks nucleotide exchange on a G protein.

The chains behind the UniProt entries cited, without tags or fusion partners.
UniProt P08172, whole entry: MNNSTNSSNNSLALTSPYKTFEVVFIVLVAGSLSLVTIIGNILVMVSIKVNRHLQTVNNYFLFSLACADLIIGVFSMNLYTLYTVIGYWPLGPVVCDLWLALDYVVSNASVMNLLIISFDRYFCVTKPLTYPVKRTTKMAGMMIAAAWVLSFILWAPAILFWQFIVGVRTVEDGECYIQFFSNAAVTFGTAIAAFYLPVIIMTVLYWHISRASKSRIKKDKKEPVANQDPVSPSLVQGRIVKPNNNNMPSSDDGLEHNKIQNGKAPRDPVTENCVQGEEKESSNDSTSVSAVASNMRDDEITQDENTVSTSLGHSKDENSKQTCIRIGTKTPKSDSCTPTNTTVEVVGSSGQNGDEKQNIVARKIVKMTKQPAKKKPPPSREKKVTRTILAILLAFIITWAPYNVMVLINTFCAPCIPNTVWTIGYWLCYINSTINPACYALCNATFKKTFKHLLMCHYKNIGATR

The record followed here is paper PMC6420642, “Applications and limitations of fitting of the operational model to determine relative efficacies of agonists” (Scientific Reports, 2019).

One may read the EC50 as the concentration at which the effect is half-maximal. A higher EC50 goes with a less potent agent. Consider `CCCCCCOc1nsnc1C1=CCCN(C)C1` [Xanomeline], for which a half-maximal effect (EC50) was put at 4.57 nM.
